ChEMBL document CHEMBL1136541, “D-Phe-Pro-Arg type thrombin inhibitors: unexpected selectivity by modification of the P1 moiety” (Bioorg Med Chem Lett, 2003)

Target: Prothrombin (Homo sapiens, UniProt P00734)
Test: In vitro inhibitory activity against thrombin

**Q.** Which IC50 does the source give for `Cn1c(CNC(=O)[C@@H]2C=CCN2C(=O)[C@@H](CC2CCCCC2)NCC(=O)O)ccc1C(=N)N` here?
**A.** 6.2 nM

**Q.** For `Cn1cc(CNC(=O)[C@@H]2C=CCN2C(=O)[C@@H](CC2CCCCC2)NCC(=O)O)cc1C(=N)N`, which IC50 is on record?
**A.** 11 nM
